Test results: patent US11147875B2, “Compositions, combinations and related methods for photoimmunotherapy” (priority 2015, dated 2021)
Entries after “also recorded” stand apart in the source; their conditions may differ.

What was measured:
Staphylococcus aureus = experiment: PIT killing of bacteria, colony forming units; assay type: cell-based; settings: 100 μg/mL, 690 nm laser at 300 J/cm^2
Protocol: The cells were then illuminated with a 690 nm laser at 0 or 300 J/cm^2. The number of remaining viable bacterial cells was determined by counting colony forming units (CFU) on BHI agar plates under the following conditions. As a control, the number of viable bacterial cells also was assessed in cells treated with cetuximab-IRDye 700DX incubation alone but without laser illumination, laser illumination alone, or untreated. Percent of viable CFU was normalized to bacterial cells with no treatment.

BxPC3 cells [1] = experiment: PIT killing by light pre-exposed cetuximab-IRDye 700DX; assay type: cell-based
BxPC3 cells [2] = experiment: In vitro PIT, titration of conjugate at two light doses; assay type: cell-based
Protocol: (§1) Then, 8 J/cm^2 of 690 nm light was applied to induce PIT. To monitor the progression of cell death after light treatment, the conjugate containing medium was replaced by fresh medium containing CellTox Green (Promega), a dye that reports cell death based on compromised cell membrane integrity. Time dependent increase in cell death was observed over 24 hours. As a control, cell death also was assessed in cells in which cetuximab-IRDye 700DX conjugate was not added (designated “NT”).

A431 cells = experiment: In vitro PIT, CellTox Green cell death; assay type: cell-based
Protocol: as §1

[3] = system: squamous carcinoma of head and neck; experiment: Tumor response (RECIST 1.1) after single dose of conjugate and 690 nm light (PIT); assay type: in vivo, human
Protocol: Each cohort included three (3) patients.
To induce photoimmunotherapy (PIT), one light application with a light having a wavelength of 690 nm was performed at 24 hours±3 hours (Day 2) post conjugate administration. 690 nm light was administered to the tumor via 400 micron glass fiber microlens forward firing fibers for surface illumination of tumors that were less than 10 mm thick, or via cylindrical diffuser fibers placed into the tumor for tumors that were greater than 10 mm thick or for subcutaneous tumors. Light treatment was fixed at a low fluence of 50 J/cm^2 for superficial illumination or 100 J/cm fiber length for interstitial illumination (at a fluence rate of 150 mW/cm^2 for superficial illumination and 400 mW/cm fiber length for interstitial illumination).
The tumor response was evaluated according to the RECIST (Response Evaluation Criteria In Solid Tumors) criteria as outlined in the revised version 1.1 guidelines (RECIST 1.1, see Eisenhauer et al. (2009) European Journal of Cancer, 45:228-247). A response was determined to be a “complete response” (CR) if there was a disappearance of all target lesions, and any pathological lymph nodes (whether target or non-target) were reduced in short axis to <10 mm. A response was determined to be a “partial response” (PR) if there was at least a 30% decrease in the sum of diameter of target lesions (e.g., at least 30% reduction in tumor growth), taking as reference the baseline sum diameters of the target lesions prior to the treatment. The “objective response rate” (ORR) is the percentage of subjects in which a CR or PR response was observed.

[4] = Clinical safety of the infusions
BxPC3 cells [5] = experiment: Fluorescence of cells stained with cetuximab conjugates with or without secondary antibody, flow cytometry; assay type: cell-based; settings: 250 ng/mL 1st incubation
THP1 cells = experiment: PIT killing of Fc receptor-expressing cells; assay type: cell-based, human; settings: 500 ng/mL, 32 J/cm^2, with or without Fc receptor blocking
Protocol: THP1 cells (ATCC, TIB-202) grown in complete RPMI 1640 medium were plated at 5000 cells in 100 μL total volume per well in a 96 well tissue culture plate for adherence overnight. The viability of the cells prior to plating was checked via trypan blue exclusion method and >95% cells were viable.
To induce killing, cells in each group were subjected to 690 nm laser light at a dose of 32 J/cm^2. The controls represented wells corresponding to the groups described above but not treated with light. Cell killing was assessed using CellTox Green as described substantially as described Example 6. CellTox Green dye (1×) was added to the wells and cells were incubated for 24 hours at 37° C. in an incubator. The dye was also added to couple of wells just containing 100 μL of the medium for background subtraction later. After the incubation, the tissue culture plate was immediately read on a plate reader. […] The plate was then read again to obtain values for 100% cell death. For each read, the two background wells were averaged and their values subtracted from all other wells. In order to calculate the % cell death for each well, the background subtracted value from the first read was divided by the value from the second read (after lysis), and multiplied by 100.

BxPC3 cells [6] = experiment: Cell staining with dual CTX-IRDye 700DX conjugates, flow cytometry; assay type: cell-based; settings: excitation 488 nm, emission filter (530 nm/30 nm)
EGFR = molecular target: T1, EGFR (Homo sapiens, UniProt P00533); experiment: In-Cell ELISA of EGF-induced EGFR phosphorylation in A431 cells; assay type: cell-based; settings: 100 ng/mL EGF
T1 construct: A431 cells (ATCC CRL 1555) were plated in wells of a 96-well plate; host or cells: A431 cells

Which “viable CFU” value (Staphylococcus aureus) does the source give for “cetuximab-IRDye 700DX: conjugate containing IRDye 700DX (IR700) linked to cetuximab” here?
The value was “statistically significant CFU reduction”.

What about the cell death (BxPC3 cells [1]; all pre-exposed samples, 1 μg/mL, 0 J/cm^2) of the same substance?
Its cell death is “no effect on cell death was observed”.

And the PIT activity (BxPC3 cells [1]; pre-exposed to 3,000 Lux-Hours or more white fluorescent light, 32 J/cm^2)?
The PIT activity was “less than 90%”.

And the PIT potency (BxPC3 cells [1]; pre-exposed to all lux-hour doses of green light, 32 J/cm^2)?
Its PIT potency is “did not result in an effect in PIT potency”.

And the “half maximal cell death (EC50) from PIT” value (BxPC3 cells [2]; 16 J/cm^2)?
The value was 0.0226 µg/mL.

What about the “half maximal cell death (EC50) from PIT” value (BxPC3 cells [2]; 32 J/cm^2) of the same substance?
Its value is 0.0137 µg/mL.

And the “concentration for half maximal cell death vs concentration to block half the phosphorylation” value (A431 cells)?
The value was “more than 15 times lower”.

What about the “concentration that led to 90% cell death” value (A431 cells; 8 J/cm^2 of 690 nm light) of the same substance?
Its value is 257 ng/mL.

What about the “half maximal cell death (EC50) from PIT” value (A431 cells; 8 J/cm^2 of 690 nm light, 24 hours) of the same substance?
Its value is 0.0376 µg/mL.

And the tumor response ([3]; all three cohorts (160, 320, 640 mg/m^2), light at 24 h)?
The tumor response was “partial or complete response; also recorded: rapid and effective tumor response”.

What about the “time to observed tumor response” value ([3]; evidence of tumor necrosis) of the same substance?
Its value is “as early as four days”.

And the “objective response rate (ORR)” value ([3]; single dosage treatment, head and neck cancer patients)?
The value was 100%.

And the “adverse effects to the infusion” value ([4]; IV infusion over 2 hours)?
Its value is “None of the patients showed adverse effects to the infusion”.

And the “skin photosensitivity to ambient light” value ([4]; human, in vivo)?
Its value is “No skin photosensitivity to ambient light was detected”.

What about the Fluorescence (BxPC3 cells [5]; 2nd incubation 2 μg/mL Don × Hu IRDye 700DX) of the same substance?
Its Fluorescence is 74,100.

And the Fluorescence (BxPC3 cells [5]; no 2nd incubation)?
The Fluorescence was 36,099.

What about the cell killing (THP1 cells) of the same substance?
Its cell killing is “Fc receptor-specific killing”.

And the “Fluorescence Intensity (AU)” value (BxPC3 cells [6])?
The value was 87 AU.

And the “IC50, inhibition of EGF-induced EGFR phosphorylation” value (EGFR)?
Its value is 0.57 µg/mL.
